Measurements published in PMC12799587, “Predicting compounds that interact with the 2 known agonist-induced conformations of the human β1-adrenoceptor” (Molecular Pharmacology, 2025).

Sequences of proteins named here, by UniProt entry; tags and fusion partners are left off.
UniProt P08588, whole entry: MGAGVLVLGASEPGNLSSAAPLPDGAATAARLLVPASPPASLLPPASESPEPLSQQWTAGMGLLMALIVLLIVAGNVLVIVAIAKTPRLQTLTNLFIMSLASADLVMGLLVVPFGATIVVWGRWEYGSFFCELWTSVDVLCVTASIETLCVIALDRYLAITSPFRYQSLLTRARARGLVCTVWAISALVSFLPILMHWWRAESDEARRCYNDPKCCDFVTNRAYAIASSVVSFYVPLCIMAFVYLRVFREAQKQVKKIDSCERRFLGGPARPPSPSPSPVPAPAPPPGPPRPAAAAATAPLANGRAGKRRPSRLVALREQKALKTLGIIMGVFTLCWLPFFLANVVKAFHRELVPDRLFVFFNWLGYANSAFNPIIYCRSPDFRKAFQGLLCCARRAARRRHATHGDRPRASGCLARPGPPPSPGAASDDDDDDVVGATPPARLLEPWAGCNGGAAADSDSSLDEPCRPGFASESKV

Tests used:
[1] = biological target: T1, β1-AR (Homo sapiens, UniProt P08588); test: CRE-luciferase production in CHO-β1-CRE-luciferase cells; conditions: Log EC50, agonist action, given as log EC50 (negative)
[2] = biological target: T1, β1-AR; test: 3H-CGP12177 whole-cell binding in CHO-β1-CRE-SPAP cells
[3] = biological target: T1, β1-AR; test: CRE-SPAP production in CHO-β1-CRE-SPAP cells; conditions: EC502 (log EC50 of second component), biphasic concentration response

**Q.** With `C=CCc1ccccc1OCC(O)CNC(C)C` (racemic) [Alprenolol, (RS)-1-(2-allylphenoxy)-3-(isopropylamino)propan-2-ol, reference compound] as the compound, how does the EC50 [1] read?
**A.** Its EC50 is 324 nM.

**Q.** What about the Kd [2] of the same compound?
**A.** Its Kd is 6.31 nM.

**Q.** What about the EC50 [3] of the same compound?
**A.** Its EC50 is 363 nM.
